The results in this text go back to patent US9493501B2, “Methyltransferase inhibitors for treating cancer” (MEMORIAL SLOAN-KETTERING CANCER CENTER, priority 2011, dated 2016).

The target of the experiment is T1, SETD2 (1347-1711) (Homo sapiens, UniProt Q9BYW2).
T1 construct: SETD2 (1347-1711)
T1 sequence (Q9BYW2 1347-1711): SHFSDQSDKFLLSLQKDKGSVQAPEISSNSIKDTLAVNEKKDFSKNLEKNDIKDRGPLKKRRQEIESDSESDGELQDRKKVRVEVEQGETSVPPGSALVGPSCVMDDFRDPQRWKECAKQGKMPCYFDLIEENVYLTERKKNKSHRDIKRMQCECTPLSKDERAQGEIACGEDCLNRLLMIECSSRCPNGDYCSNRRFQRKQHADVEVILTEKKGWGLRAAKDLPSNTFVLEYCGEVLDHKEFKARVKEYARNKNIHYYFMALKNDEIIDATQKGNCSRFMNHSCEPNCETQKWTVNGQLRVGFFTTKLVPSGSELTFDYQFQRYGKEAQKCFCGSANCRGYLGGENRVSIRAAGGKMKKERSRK
The experiment in a line: Filter-paper methylation assay, SETD2. The class given is biochemical. The conditions noted are these: among the subset of PMTs screened.

SMILES strings stand for the structures.

On to `CCCN[C@@H](CC[C@H](N)C(=O)O)C[C@H]1O[C@@H](n2cnc3c(N)ncnc32)[C@H](O)[C@@H]1O` [Compound 102], for which the “selectivity for SETD2” value was “selective”.
